Data taken from PubChem BioAssay AID1469 (National Center for Advancing Translational Sciences (NCATS), 2008).
The entries are a selection whose mix differs from that of the whole data set. Activity calls are given as the source filed them. Calls come from the whole dose curve; as a rule, active = well fitted inhibition curve with a large enough effect; inconclusive = small, poorly fitted or top-dose-only effect, or effect the other way; inactive = flat fitted curve, though single readings scatter.

Protein sequences, listed by entry. Tags and fused reporters are not part of them.
UniProt P10828, whole entry: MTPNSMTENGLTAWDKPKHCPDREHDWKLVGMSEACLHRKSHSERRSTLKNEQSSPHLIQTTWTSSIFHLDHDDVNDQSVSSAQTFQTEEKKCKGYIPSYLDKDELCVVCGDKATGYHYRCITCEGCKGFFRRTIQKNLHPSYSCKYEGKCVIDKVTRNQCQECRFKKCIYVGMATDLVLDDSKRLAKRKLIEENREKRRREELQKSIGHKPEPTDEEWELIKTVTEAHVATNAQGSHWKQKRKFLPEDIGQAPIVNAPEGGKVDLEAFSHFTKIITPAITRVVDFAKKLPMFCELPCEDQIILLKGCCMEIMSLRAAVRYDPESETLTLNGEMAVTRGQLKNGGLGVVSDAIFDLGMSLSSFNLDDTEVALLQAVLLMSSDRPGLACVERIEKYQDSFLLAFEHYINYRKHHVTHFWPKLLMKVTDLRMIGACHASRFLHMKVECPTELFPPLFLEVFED

Target: Thyroid hormone receptor beta (Homo sapiens) (UniProt P10828)
Test: qHTS for Inhibitors of the Interaction of Thyroid Hormone Receptor and Steroid Receptor Coregulator 2;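 note: plate controls were bound peptide for no effect and peptide without receptor for full effect; nearly all actives have a fitted effect of over 50% in size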
Settings: TRbeta-SRC2 peptide binding, fluorescence polarization, receptor liganded with 1 µM T3
Description: NIH Molecular Libraries Probe Production Network [MLPCN]
NIH Chemical Genomics Center [NCGC]
Assay Provider: R. Kip Guy, St. Jude Children's Research Hospital
Thyroid receptor (TR) regulates many homeostatic processes including basal metabolism, cardiovascular function, body weight, and lipid trafficking. TR modulators are potential therapeutics for obesity and hyperlipidemias but current thyroid analogs have undesirable side effects, particularly cardiac stimulation. To identify inhibitors that specifically prevent the interaction of TR with the steroid receptor coregulator 2 (SRC2), a fluorescence polarization assay was screened. This assay detects interaction of the ligand-binding domain of human TRb with a Texas Red labeled SRC2 peptide, corresponding to a 20 amino acid region of the nuclear receptor interaction domain (Arnold et al., 2006). Small molecule inhibitors that block the interaction of TR and SRC2 are detected by a decrease in fluorescence polarization.
Arnold, L. A.; Estebanez-Perpina, E.; Togashi, M.; Shelat, A.; Ocasio, C. A.; McReynolds, A. C.; Nguyen, P.; Baxter, J. D.; Fletterick, R. J.; Webb, P.; Guy, R. K. A high-throughput screening method to identify small molecule inhibitors of thyroid hormone receptor coactivator binding. Sci STKE 2006, p 13.
NCGC Assay Protocol Summary:
For screening, 5 uL/well 0.6 uM TRb and 20 nM SRC2 Texas Red in protein buffer (20mM Tris hydrochloride, 100mM NaCl, 10% glycerol, 1mM EDTA, 0.01% NP-40, 1mM DTT, 1uM T3 and 5% DMSO) was dispensed into black solid 1536-well plates (Grenier) using a solenoid-based dispenser. Following transfer of 23 nL compound or DMSO vehicle by a pin tool, the plates were centrifuged 15 s at 1000 RPM and incubated 5 hr at ambient temperature. […] Data were normalized to unbound (all components except TRb) and bound SRC2 Texas Red controls. In this assay, we provide % activity data for each concentration as well as potencies for the active compounds.
Keywords: NIH Roadmap, MLPCN, MLI, MLSMR, qHTS, NCGC, qHTS, thyroid hormone receptor, steroid receptor coactivator, fluorescence polarization

With `O=C(O)C1(O)c2ccccc2-c2ccccc21` the activity change, negative = inhibition (at 106 µM (top of the series)) was inactive: -4.74%.
`CC(C)(C)c1ccc(OP(C)(=O)Nc2ccc(SC(F)(F)F)cc2)cc1` (configuration not stated) was tested, and the activity change, negative = inhibition (at 106 µM (top of the series)) was inactive: 0.775%.
With `Cc1cccc(C)c1OP(C)(N)=O` (configuration not stated) the activity change, negative = inhibition (at 106 µM (top of the series)) was inactive: 1.36%.
With `O=C(O)C(O)(c1ccccc1)c1ccccc1` the activity change, negative = inhibition (at 106 µM (top of the series)) was inactive: 4.38%.
In the case of `O=[N+]([O-])c1ccc2c(c1)C=Nc1ccccc1O2`, the activity change, negative = inhibition (at 106 µM (top of the series)) is reported as inactive: 1.44%.
`CCOC(=O)c1ccc(NP(C)(=O)Oc2ccccc2)cc1` (configuration not stated) was tested, and the activity change, negative = inhibition (at 106 µM (top of the series)) was inactive: -1.13%.
`COc1ccccc1OP(C)(=O)Nc1ccc(C)cc1` (configuration not stated) was tested, and the activity change, negative = inhibition (at 106 µM (top of the series)) was inactive: -8.26%.
`Cc1ccc(NP(C)(=O)Oc2ccccc2)c(C)c1` (configuration not stated) was tested, and the activity change, negative = inhibition (at 106 µM (top of the series)) was inactive: 6.17%.
In the case of `COc1ccccc1OP(C)(=O)Nc1cc(Cl)ccc1C` (configuration not stated), the activity change, negative = inhibition (at 53 µM (top of the series)) is reported as inactive: 2.82%.
`COc1ccc(OP(C)(=O)Nc2cccc(F)c2)cc1` (configuration not stated) was tested, and the activity change, negative = inhibition (at 106 µM (top of the series)) was inactive: 5.52%.
With `Cc1cc(C)cc(OP(C)(N)=O)c1` (configuration not stated) the activity change, negative = inhibition (at 106 µM (top of the series)) was inactive: -6.48%.
`CP(=S)(Nn1cnnc1)Oc1ccccc1` (configuration not stated) was tested, and the activity change, negative = inhibition (at 106 µM (top of the series)) was inactive: 2.03%.
With `COc1ccccc1OP(C)(=O)Nc1ccccc1` (configuration not stated) the activity change, negative = inhibition (at 106 µM (top of the series)) was inactive: -0.708%.
In the case of `CP(=O)(Nc1ccccc1Br)Oc1ccccc1` (configuration not stated), the activity change, negative = inhibition (at 106 µM (top of the series)) is reported as inactive: -2.63%.
With `Cc1cccc(C)c1OP(C)(=O)Nc1ccc(SC(F)(F)F)cc1` (configuration not stated) the activity change, negative = inhibition (at 106 µM (top of the series)) was inactive: -10.4%.
With `CP(=O)(Nc1ccc(SC(F)(F)F)cc1)Oc1ccc(Cl)cc1` (configuration not stated) the activity change, negative = inhibition (at 106 µM (top of the series)) was inactive: -9.13%.
`CP(=O)(Oc1ccccc1)OC(c1ccccc1)C(F)(F)F` (configuration not stated) was tested, and the activity change, negative = inhibition (at 106 µM (top of the series)) was inactive: -2.49%.
For `CP(=O)(NC(=O)Nc1ccccc1)Oc1ccccc1` (configuration not stated), the activity change, negative = inhibition (at 106 µM (top of the series)) was inactive: -11%.
With `CCc1ccc(OP(C)(=O)N2CCN(c3ccc([N+](=O)[O-])cc3)CC2)cc1` (configuration not stated) the activity change, negative = inhibition (at 106 µM (top of the series)) was inactive: -8.25%.
For `Cc1cc(C)cc(OP(C)(=O)Nc2ccc(SC(F)(F)F)cc2)c1` (configuration not stated), the activity change, negative = inhibition (at 106 µM (top of the series)) was inactive: 2.05%.
With `CCOP(C)(=S)SCC(=O)NC(C)C(=O)O` (configuration not stated) the activity change, negative = inhibition (at 106 µM (top of the series)) was inactive: -20.4%.
For `CCOC(=O)c1ccc(NP(C)(=O)Oc2ccc(OC)cc2)cc1` (configuration not stated), the activity change, negative = inhibition (at 106 µM (top of the series)) was inactive: 0.322%.
For `CN(C)CCS`, the activity change, negative = inhibition (at 106 µM (top of the series)) was inactive: 6.67%.
For `CP(=O)(Nc1ccccn1)Oc1ccc(Cl)cc1` (configuration not stated), the activity change, negative = inhibition (at 106 µM (top of the series)) was inactive: 10%.
With `O=[N+]([O-])c1cc([N+](=O)[O-])c(-n2nnc3ccccc32)c([N+](=O)[O-])c1` the activity change, negative = inhibition (at 106 µM (top of the series)) was inactive: 3.68%.
For `CC(C)N(CCCl)C(C)C`, the activity change, negative = inhibition (at 106 µM (top of the series)) was inactive: 0.33%.
In the case of `Cc1nc2ccc3ccccc3c2s1.O=[N+]([O-])c1cc([N+](=O)[O-])c(O)c([N+](=O)[O-])c1`, the activity change, negative = inhibition (at 106 µM (top of the series)) is reported as inactive: -7.6%.
With `O=[N+]([O-])c1cc([N+](=O)[O-])c(Nc2nnnn2CCO)c([N+](=O)[O-])c1` the activity change, negative = inhibition (at 106 µM (top of the series)) was inactive: -1.57%.
With `COc1ccccc1OP(C)(=O)Nc1c(C)cccc1C` (configuration not stated) the activity change, negative = inhibition (at 106 µM (top of the series)) was inactive: 0.433%.
With `CN1CCCCC1COC(=O)C1(O)c2ccccc2CCc2ccccc21` (configuration not stated) the activity change, negative = inhibition (at 106 µM (top of the series)) was inactive: -2.36%.
With `CCCOc1ccc(NP(C)(=O)Oc2ccc(Cl)cc2)cc1` (configuration not stated) the activity change, negative = inhibition (at 106 µM (top of the series)) was inactive: 3.93%.
`CP(=O)(Nc1ccc(SC(F)(F)F)cc1)Oc1ccccc1` (configuration not stated) was tested, and the activity change, negative = inhibition (at 106 µM (top of the series)) was inactive: -0.84%.
With `O=[N+]([O-])c1cccc([N+](=O)[O-])c1` the activity change, negative = inhibition (at 106 µM (top of the series)) was inactive: 0.66% and the activity change, negative = inhibition (at 201 µM (top of the series)) was inactive: 2.08%.
`CCOP(=S)(CC)Oc1cc(Cl)c(Cl)cc1Cl` (configuration not stated) was tested, and the activity change, negative = inhibition (at 201 µM (top of the series)) was inactive: 0.422%.
In the case of `Cc1ccc([N+](=O)[O-])cc1[N+](=O)[O-]`, the activity change, negative = inhibition (at 106 µM (top of the series)) is reported as inactive: 0.474% and the activity change, negative = inhibition (at 201 µM (top of the series)) is reported as inactive: -4.89%.
With `CC1=NCCc2c1[nH]c1ccccc21.O=[N+]([O-])c1cc([N+](=O)[O-])c(O)c([N+](=O)[O-])c1` the activity change, negative = inhibition (at 106 µM (top of the series)) was inactive: -3.63%.
For `COc1ccccc1OP(C)(=O)Nc1cccc(Br)c1` (configuration not stated), the activity change, negative = inhibition (at 106 µM (top of the series)) was inactive: 9.55%.
With `Cc1cc(C)cc(OP(C)(=O)Nc2ccc(C)cc2C)c1` (configuration not stated) the activity change, negative = inhibition (at 106 µM (top of the series)) was inactive: 6.11%.
For `CCOC(=O)c1ccc(NP(C)(=O)Oc2cc(C)cc(C)c2)cc1` (configuration not stated), the activity change, negative = inhibition (at 106 µM (top of the series)) was inactive: 8.52%.
With `Cc1cc(C)cc(OP(C)(=O)Nc2ccccn2)c1` (configuration not stated) the activity change, negative = inhibition (at 106 µM (top of the series)) was inactive: -0.399%.
`CP(=O)(Nc1cccc(Br)c1)Oc1ccccc1` (configuration not stated) was tested, and the activity change, negative = inhibition (at 106 µM (top of the series)) was inactive: 7.23%.
`Cc1ccc(C)c(NP(C)(=O)Oc2ccccc2)c1` (configuration not stated) was tested, and the activity change, negative = inhibition (at 106 µM (top of the series)) was inactive: -6.25%.
In the case of `CC(C)c1ccc(OP(C)(=O)Nc2ccc(SC(F)(F)F)cc2)cc1` (configuration not stated), the activity change, negative = inhibition (at 106 µM (top of the series)) is reported as inactive: -5.9%.
With `CP(=O)(Nc1ccccc1F)Oc1ccccc1` (configuration not stated) the activity change, negative = inhibition (at 106 µM (top of the series)) was inactive: -7.55%.
In the case of `O=C(OCCN1CCN(CCOCc2ccccc2)CC1)C(O)(c1ccccc1)c1ccccc1`, the activity change, negative = inhibition (at 53 µM (top of the series)) is reported as inactive: -2.36%.
